1 molecule from patent publication US20240400571A1, “5,6 UNSATURATED BICYCLIC HETEROCYLES USEFUL AS INHIBITORS OF NOD-LIKE RECEPTOR PROTEIN 3” (Merck Sharp & Dohme LLC, priority 2023, published 2024) can be followed below.

Sequences of proteins named here, by UniProt entry; tags and fusion partners are left off.
UniProt Q96P20, whole entry: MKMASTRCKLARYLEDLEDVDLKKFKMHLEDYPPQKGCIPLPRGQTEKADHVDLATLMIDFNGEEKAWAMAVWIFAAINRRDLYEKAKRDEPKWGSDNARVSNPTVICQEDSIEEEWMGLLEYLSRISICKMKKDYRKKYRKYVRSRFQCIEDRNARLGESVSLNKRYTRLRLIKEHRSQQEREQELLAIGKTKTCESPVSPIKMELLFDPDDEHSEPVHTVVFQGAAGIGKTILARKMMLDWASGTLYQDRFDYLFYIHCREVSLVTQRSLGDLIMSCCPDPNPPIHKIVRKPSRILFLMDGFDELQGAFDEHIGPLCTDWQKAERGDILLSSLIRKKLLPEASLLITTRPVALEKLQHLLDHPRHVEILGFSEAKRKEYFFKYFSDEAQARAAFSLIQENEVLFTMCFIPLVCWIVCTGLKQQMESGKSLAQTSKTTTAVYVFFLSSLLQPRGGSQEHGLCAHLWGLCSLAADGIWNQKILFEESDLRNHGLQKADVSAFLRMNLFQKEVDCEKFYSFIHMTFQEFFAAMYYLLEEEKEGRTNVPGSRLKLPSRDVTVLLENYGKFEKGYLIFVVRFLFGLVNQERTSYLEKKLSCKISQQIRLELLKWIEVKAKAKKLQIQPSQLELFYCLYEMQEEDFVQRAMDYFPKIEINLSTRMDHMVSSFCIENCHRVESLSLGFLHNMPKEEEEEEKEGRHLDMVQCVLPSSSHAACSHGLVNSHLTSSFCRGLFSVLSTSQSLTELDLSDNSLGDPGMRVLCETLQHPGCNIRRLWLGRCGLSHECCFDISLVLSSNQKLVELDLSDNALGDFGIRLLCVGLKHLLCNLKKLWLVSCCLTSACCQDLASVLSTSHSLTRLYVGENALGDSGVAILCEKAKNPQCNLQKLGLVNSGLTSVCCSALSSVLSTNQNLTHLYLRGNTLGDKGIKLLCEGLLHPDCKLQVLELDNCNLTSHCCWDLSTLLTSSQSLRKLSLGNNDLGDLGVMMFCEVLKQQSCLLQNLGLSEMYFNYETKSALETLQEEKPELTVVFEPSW

By EC50 is commonly meant the concentration needed to bring the measured effect to its halfway point.

For the experiment, the target named is NLRP3 inflammasome (Homo sapiens, UniProt Q96P20). The experiment is described as follows: ASC-SPECK formation in THP-1 cells after gramicidin stimulation (NLRP3 inflammasome activation). To be noted: read-out: EC50 values (nM) for Examples that inhibit NLRP3 inflammasome activation; PMA-treated human monocytic THP-1 cells; compound 1 h before 12.5 μg/ml gramicidin, 3-hour treatment; ASC SPECK imaging. As for the experimental part:
The ability of compounds to inhibit NLRP3 inflammasome activation was determined in vitro by monitoring formation of the ASC-SPECK in human monocytic THP-1 cells after stimulation. THP-1 cells (ATCC catalog #TIB-202) were maintained in complete growth media containing Roswell Park Memorial Institute RPMI (ATCC catalog #30-2001), 10% heat inactivated fetal bovine serum, 1× penicillin/streptomycin and 0.05 mM 2-mercaptoethanol. At the start of the assay, undifferentiated THP-1 cells were plated at a density of 20,000 cells per well in a 384-well plate (Poly-D-lysine coated Cell Carrier Ultra microplate, Perkin Elmer catalog #6057500) in complete growth media supplemented with 10 ng/ml phorbol 12-myristate 13-acetate (PMA; Sigma catalog #P8139), and then incubated overnight. The next day, media was replaced with assay media [RPMI (Gibco catalog #11875-093), 0.01% bovine serum albumin (BSA)]. […]
Immunofluorescence staining: Anti-ASC antibody (MBL catalog #D086-3) was desalted and labeled with Alexa 488 antibody labeling kit (Thermo catalog #A20181) prior to use as described below. […] The number of DRAQ5 positive cells containing ASC SPECKS were quantified in each well.
Data analysis: EC50 values were calculated by standard curve-fitting analysis using an internally developed program in TIBCO Spotfire software.

Regarding `CCN1CCC[C@@H](n2ccc3c(C)c(-c4ccc(C(F)(F)F)cc4O)nnc32)C1`, the EC50 came to 35 nM.
